These results are taken from patent publication US20250161478A1, “LINKER PAYLOADS AND CONJUGATES THEREOF” (priority 2021, published 2025).

The conditions of data set [1]: PBS at 37° C. for 24 h (pH 7.4), MALDI-TOF MS.
The conditions of data set [2]: HSA 40 mg/ml, PBS pH 7.4, 37° C.
A short description of data set [3]: Conjugate stability in mouse serum. Particulars: mouse serum at +37° C., overnight and four days, MALDI-TOF MS.

On to “trastuzumab-maleimidoacetyl-β-Ala-Val-Ser(Glc)-PAB-MMAU [TRAuM]”, for which the “maleimide stabilization by hydrolysis” value in data set [1] was “effectively stabilized by hydrolysis during the 24 h incubation”. Further, the “DAR at start of incubation” value in data set [2] (0 days) came out at 7.8. The “DAR at end of incubation” value in data set [2] (10 days) came out at 7.2.
On to “glutathione-maleimidocaproyl-Val-Cit-PAB-MMAU”, for which the “linker stability in serum” value in data set [3] is on record as “relatively unstable in serum”.
